The values that follow come from ChEMBL document CHEMBL1157914, “5,5'-substituted indirubin-3'-oxime derivatives as potent cyclin-dependent kinase inhibitors with anticancer activity” (J Med Chem, 2010).

This assay has as its target T1, Aurora kinase A (Homo sapiens, UniProt O14965).
T1 sequence (O14965 whole entry): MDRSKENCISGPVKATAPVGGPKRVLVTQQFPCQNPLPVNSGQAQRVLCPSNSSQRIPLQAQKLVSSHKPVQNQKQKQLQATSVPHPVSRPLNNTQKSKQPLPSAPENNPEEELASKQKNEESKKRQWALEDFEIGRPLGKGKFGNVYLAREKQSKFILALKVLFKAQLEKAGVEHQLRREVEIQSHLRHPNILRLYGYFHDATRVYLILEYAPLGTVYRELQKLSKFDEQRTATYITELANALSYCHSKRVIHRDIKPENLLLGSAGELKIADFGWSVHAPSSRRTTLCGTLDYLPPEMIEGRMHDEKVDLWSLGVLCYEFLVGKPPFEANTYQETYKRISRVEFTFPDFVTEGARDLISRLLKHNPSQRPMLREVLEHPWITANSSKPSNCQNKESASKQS
Kind of assay: Inhibition of recombinant auroraA preincubated for 15 mins by HTRF assay. (In TR-FRET formats the signal depends on donor and acceptor labels being close together.)

Structures are written as SMILES. pIC50: −log10 of the molar value.

Usually pIC50 stands for the negative decadic logarithm of the IC50, by convention in mol/L. As for `O=C1Nc2ccc([N+](=O)[O-])cc2/C1=C1/Nc2ccc(O)cc2/C1=N/O`, the pIC50 was 6.00.
